Measurements: PubChem BioAssay AID588391 (Broad Institute, 2011)
This is a selection; strong and weak results do not stand in their true shares. Calls of active or inactive are those of the source.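 How the source made its calls: active means mean inhibition across replicates of 30% or more, whatever share of single replicates reach that level; inconclusive means mean inhibition below 30% while every single replicate reaches 30%; inactive means the rest.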

Chains of the proteins cited; added tags and fusions are not shown.
UniProt P07237, whole entry: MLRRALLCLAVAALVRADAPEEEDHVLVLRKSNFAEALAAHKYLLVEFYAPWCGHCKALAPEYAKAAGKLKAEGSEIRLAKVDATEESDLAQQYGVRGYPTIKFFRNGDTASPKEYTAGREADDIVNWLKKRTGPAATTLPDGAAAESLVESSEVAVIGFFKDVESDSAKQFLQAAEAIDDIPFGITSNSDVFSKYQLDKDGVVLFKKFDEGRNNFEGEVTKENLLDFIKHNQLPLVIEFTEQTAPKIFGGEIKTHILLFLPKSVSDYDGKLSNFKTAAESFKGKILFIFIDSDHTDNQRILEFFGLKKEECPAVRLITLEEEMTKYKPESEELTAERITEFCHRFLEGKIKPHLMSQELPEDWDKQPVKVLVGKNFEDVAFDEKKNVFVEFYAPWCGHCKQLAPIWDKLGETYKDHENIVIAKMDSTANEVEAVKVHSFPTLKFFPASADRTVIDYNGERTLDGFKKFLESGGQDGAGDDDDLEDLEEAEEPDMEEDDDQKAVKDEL

target: Protein disulfide-isomerase (Homo sapiens) (UniProt P07237); assay: blockers of PDI-driven insulin aggregation – biochemical, turbidity, single point, plate reader, primary screen (AID 588391); conditions: A650, 90 min, at 10 µM, stronger effect = higher value;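 further: absorbance from insulin aggregation driven by PDI reduction with DTT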

Row | Compound | inhibition
1 | CCN1CCC(Nc2ccc(Cl)cc2)CC1 | inactive: 3.47%
2 | N#CC1(Nc2ccccc2)CCN(CCc2ccccc2)CC1 | inactive: -7.13%
3 | O=C(NCC1(N2CCCCC2)CCCCC1)c1cccc([N+](=O)[O-])c1 | inactive: 12.9%
4 | CSc1ccc(C(=O)NCC2(N3CCOCC3)CCCCC2)cc1 | inactive: 16.2%
5 | O=C(NCC1(N2CCCCC2)CCCCC1)c1ccc(OC(F)F)cc1 | inactive: -3.32%
6 | O=C(NCC1(N2CCOCC2)CCCCC1)c1cc(=O)[nH]c2ccccc12 | inactive: 2.44%
7 | COc1cc(C(=O)NCC2(N3CCCCC3)CCCCC2)ccc1OC(F)F | inactive: -2.17%
8 | COc1ccc(NC2CCN(C(=O)OC(C)(C)C)CC2)cc1 | inactive: 5.3%
9 | CC(C)c1ccc(C(=O)NCC2(N3CCOCC3)CCCCC2)cc1 | inactive: 2.24%
10 | CN1CCN(CCOC(=O)C(O)(c2ccccc2)c2ccccc2)CC1 | inactive: 14.8%
11 | O=C(NCC1(N2CCCCC2)CCCCC1)c1cccc(C(F)(F)F)c1 | inactive: 3.89%
12 | COc1cc(OC)c(C(=O)NCC2(N(C)C)CCCCC2)cc1OC | inactive: 1.71%
13 | O=C(NCC1(N2CCOCC2)CCCCC1)c1cc(F)c(F)cc1Cl | inactive: -2.47%
14 | CC(C)c1ccc(NC2CCN(C(=O)OC(C)(C)C)CC2)cc1 | inactive: 1.92%
15 | COc1ccc(CN(CCCl)CCCl)cc1Cl | inactive: 5.68%
16 | CN(C)c1cccc(C(=O)NCC2(N3CCCCC3)CCCCC2)c1 | inactive: 1.3%
17 | Cc1ccc(C(=O)NCC2(N(C)C)CCCCC2)o1 | inactive: -0.327%
18 | CCCOc1ccc(C(=O)NCC2(N(C)C)CCCCC2)cc1OC | inactive: -0.213%
19 | CN1CCC(Nc2cccc(F)c2)CC1 | inactive: 11.2%
20 | O=C(NCC1(N2CCCCC2)CCCCC1)c1cncc(Br)c1 | inactive: -2.25%
21 | CSc1ccccc1C(=O)NCC1(N2CCCCC2)CCCCC1 | inactive: -4.27%
22 | Cc1cccc(NC2(C#N)CCN(Cc3ccccc3)CC2)c1 | inactive: 3.46%
23 | COc1ccc(C(=O)NCC2(N3CCCCC3)CCCCC2)cc1 | inactive: -1.65%
24 | COc1ccc(C(=O)NCC2(N3CCCCC3)CCCCC2)c(OC)c1OC | inactive: -7.89%
25 | CC(C)(C)OC(=O)N1CCC(N(C(=O)c2ccccc2)c2ccc(F)cc2)CC1 | inactive: -1.9%
26 | O=C(NCC1(N2CCCCC2)CCCCC1)c1ccc(=O)[nH]c1 | inactive: 3.58%
27 | O=C(NCC1(N2CCCCC2)CCCCC1)c1cccs1 | inactive: 0.718%
28 | O=C(NCC1(N2CCCCC2)CCCCC1)c1ccc(Cl)s1 | inactive: -11.2%
